Publication PMC6172315, “Relative Selectivity of Plant Cardenolides for Na^+/K^+-ATPases From the Monarch Butterfly and Non-resistant Insects” (Frontiers in Plant Science, 2018)

Sequences of proteins named here, by UniProt entry; tags and fusion partners are left off. Residues count along the entry.
UniProt K0G7C4, 1-1009: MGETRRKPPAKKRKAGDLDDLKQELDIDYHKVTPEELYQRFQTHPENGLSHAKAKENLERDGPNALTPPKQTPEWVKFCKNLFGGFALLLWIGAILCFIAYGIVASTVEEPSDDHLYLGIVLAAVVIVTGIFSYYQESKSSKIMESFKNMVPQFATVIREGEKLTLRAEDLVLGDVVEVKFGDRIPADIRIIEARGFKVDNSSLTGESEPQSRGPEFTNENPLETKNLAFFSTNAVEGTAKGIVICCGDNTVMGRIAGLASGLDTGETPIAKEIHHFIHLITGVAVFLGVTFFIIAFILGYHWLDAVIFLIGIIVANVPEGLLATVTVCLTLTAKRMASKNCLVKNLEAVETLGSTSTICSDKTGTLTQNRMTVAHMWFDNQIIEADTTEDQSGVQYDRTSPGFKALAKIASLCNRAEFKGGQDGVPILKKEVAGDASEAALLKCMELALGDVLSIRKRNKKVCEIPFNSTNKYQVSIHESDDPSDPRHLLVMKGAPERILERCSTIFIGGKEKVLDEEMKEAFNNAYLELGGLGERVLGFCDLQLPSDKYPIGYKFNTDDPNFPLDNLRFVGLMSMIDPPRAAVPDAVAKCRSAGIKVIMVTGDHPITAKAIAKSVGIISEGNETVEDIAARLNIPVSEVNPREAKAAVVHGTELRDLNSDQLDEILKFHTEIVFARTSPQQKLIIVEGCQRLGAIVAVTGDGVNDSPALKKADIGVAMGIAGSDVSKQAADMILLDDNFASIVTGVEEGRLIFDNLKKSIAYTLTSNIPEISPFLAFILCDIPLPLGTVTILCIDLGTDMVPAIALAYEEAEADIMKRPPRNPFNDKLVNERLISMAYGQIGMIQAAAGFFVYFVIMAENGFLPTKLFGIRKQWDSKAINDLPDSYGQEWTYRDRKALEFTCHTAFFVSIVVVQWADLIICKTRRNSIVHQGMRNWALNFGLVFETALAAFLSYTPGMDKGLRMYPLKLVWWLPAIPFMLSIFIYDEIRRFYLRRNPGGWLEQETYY

Assays:
[1] = target: D. plexippus-Na^+/K^+-ATPase (Danaus plexippus, UniProt K0G7C4); test: In vitro inhibition assay of D. plexippus Na+/K+-ATPase (phosphate release); type: biochemical; conditions: for fold difference between IC50 values, non-adapted (E. core/S. gregaria) vs adapted (D. plexippus) insect Na^+/K^+-ATPase: Figure 2, last number, S. gregaria values used for ouabain and digitoxigenin
lamb Na^+/K^+-ATPase = test: Fold differences of IC50 between lamb and insect Na+/K+-ATPases; type: biochemical; conditions: lamb IC50 inferred from ref Paula et al., 2005; for fold difference between IC50 values, lamb vs adapted insect (D. plexippus) Na^+/K^+-ATPase: Figure 2, first number; for fold difference between IC50 values, lamb vs non-adapted insect (E. core/S. gregaria) Na^+/K^+-ATPase: Figure 2, second number

| SMILES | fold difference between IC50 values, non-adapted (E. core/S. gregaria) vs adapted (D. plexippus) insect Na^+/K^+-ATPase [1] | fold difference between IC50 values, lamb vs adapted insect (D. plexippus) Na^+/K^+-ATPase (lamb Na^+/K^+-ATPase) | fold difference between IC50 values, lamb vs non-adapted insect (E. core/S. gregaria) Na^+/K^+-ATPase (lamb Na^+/K^+-ATPase) | fold difference between IC50 values of non-adapted insect and D. plexippus-Na^+/K^+-ATPase [1] |
| --- | --- | --- | --- | --- |
| C[C@]12CC[C@H](O)C[C@H]1CC[C@@H]1[C@@H]2CC[C@]2(C)[C@@H](C3=CC(=O)OC3)CC[C@]12O | 9 x | 229 x | 25 x |  |
| C[C@]12CC[C@H](O)C[C@H]1CC[C@@H]1[C@@H]2C[C@@H](O)[C@]2(C)[C@@H](C3=CC(=O)OC3)CC[C@]12O [digoxigenin] | 32 x | 2240 x | 69 x |  |
| CO[C@H]1C[C@H](O[C@H]2CC[C@@]3(C)[C@H](CC[C@@H]4[C@@H]3CC[C@]3(C)[C@@H](C5=CC(=O)OC5)[C@@H](OC(C)=O)C[C@]43O)C2)O[C@@H](C)[C@@H]1O [oleandrin] | 4 x | 20 x | 5 x | fourfold |
| C[C@@H]1O[C@@H](O[C@H]2C[C@@H](O)[C@]3(CO)[C@H]4[C@H](O)C[C@]5(C)[C@@H](C6=CC(=O)OC6)CC[C@]5(O)[C@@H]4CC[C@]3(O)C2)[C@H](O)[C@H](O)[C@H]1O [ouabain, reference compound] | 94 x | 450 x | 5 x | 94 fold |
| CC12CCC(O)CC1CCC1C2CCC2(C)C(C3=CC(=O)OC3)CCC12O (stereo not drawn) [uzarigenin] | 4 x | 56 x | 16 x | fourfold |
